In ChEMBL document CHEMBL3046632 (Med Chem Res, 2004) one finds Kd data, which are given here for one molecule.

Protein sequences, listed by entry. Tags and fused reporters are not part of them.
UniProt P19020, whole entry: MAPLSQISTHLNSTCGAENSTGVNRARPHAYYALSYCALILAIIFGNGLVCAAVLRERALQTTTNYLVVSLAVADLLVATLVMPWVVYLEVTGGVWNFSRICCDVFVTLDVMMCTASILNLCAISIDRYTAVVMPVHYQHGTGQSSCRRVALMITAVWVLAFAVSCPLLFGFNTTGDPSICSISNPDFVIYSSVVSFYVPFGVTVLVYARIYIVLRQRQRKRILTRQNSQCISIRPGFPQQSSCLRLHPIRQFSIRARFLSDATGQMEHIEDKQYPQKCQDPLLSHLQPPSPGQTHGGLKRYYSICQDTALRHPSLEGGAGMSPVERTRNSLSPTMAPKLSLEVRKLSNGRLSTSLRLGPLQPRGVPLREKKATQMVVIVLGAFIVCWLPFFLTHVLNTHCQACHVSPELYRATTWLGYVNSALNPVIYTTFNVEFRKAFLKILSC

The structures appear in SMILES notation.

The target in test [1] is T1, D(3) dopamine receptor (Rattus norvegicus, UniProt P19020). The test is described as follows: Binding affinity to Rattus norvegicus (rat) wild type dopamine D3 receptor transfected in african green monkey COS7 cells after 1 hr by beta scintillation counting. The format is cell-based, COS-7.
Test [2] deals with T1, D(3) dopamine receptor. Nature of the test: Binding affinity to Rattus norvegicus (rat) chimeric dopamine D3 trunk/D3 tail receptor transfected in african green monkey COS7 cells after 1 hr by beta scintillation counting. The format is cell-based, COS-7.

A word on the Kd: it is the constant that tells how readily two partners part at equilibrium. Turning to `CNc1cc(OC)c(C(=O)NC2CCN(Cc3ccccc3)C2C)cc1Cl` (configuration not stated) [NEMONAPRIDE], the dissociation constant (Kd) came out at 0.064 nM in test [1] and 0.06 nM in test [2].
